Experimental data as given in patent US9266922B2, “Antigen peptide and uses thereof” (priority 2011, dated 2016).

How the values were obtained:
[1] = target: T1, HLA A*0201 on CEM.T2 cell line (Homo sapiens, UniProt P04439, D140Y/D185E/D98H/E176V/E277Q/G131W/G231S/I119V/I121R/I166T/I218V/L300P/L318F/N151K/N90K/P208A/P217A/Q86G/Q94H/R138H/R169H/T345S); assay: Cellular binding assay, HLA stabilization on CEM.T2 cells; format: cell-based; conditions: flow cytometry, FIG. 3A and 3B
T1 construct: This cell line expresses HLA A*0201 but is deficient for TAP transporter; endogenous in cells; host or cells: CEM.T2 (T2) cell line
Experimental: The CEM.T2 cell line (T2) is defective in the processing of proteins for presentation by MHC class 1 molecules. This cell line expresses HLA A*0201 but is deficient for TAP transporter. T2 is classically used to assess the Peptide/HLA-A*0201 Complex Stability[H. W. Nijman et al., 1993]
For HLA-A2*0201 stabilization, T2 cells (2×10^5/well) were incubated in serum-free RPMI (Gibco®-France) with 100 μM of selected peptide, at 37° C. for 4 h. Cells were washed two times with PBS supplemented with 1% BSA and stained with fluorescein isothiocyanate-conjugated anti HLA-A2 (Clone BB7.2) (BD Bioscience Pharmingen-France-) at 4° C. for 45 min. After 3 washes, cells were fixed in PBS supplemented with 2% paraformaldehyde and analyzed by FACS (FACScan, BD Bioscience). The percentage of peptide binding was calculated as follows: % Binding={(MFI peptide sample−MFI Neg control)/(MFI Pos control−MFI Neg control)}×100
The peptide […] from Hepatitis B Virus [I. A. Doytchinova et al., 2004] was used as positive control peptide. Negative control was done without peptide.

HLA-A*0201 = HLA-A*0201 (Homo sapiens, UniProt P04439, D140Y/D185E/D98H/E176V/E277Q/G131W/G231S/I119V/I121R/I166T/I218V/L300P/L318F/N151K/N90K/P208A/P217A/Q86G/Q94H/R138H/R169H/T345S); assay: F-Score ranking (iTOPIA and CEM T2); conditions: overall ranking by iTOPIA and CEM T2 assays, nectin4 and reference peptides together
Excerpt: These peptides present binding characteristics close to the well characterized GnTV, NY-ESO-1 and tyrosinase peptides used in clinics.

Sequence | HLA-A*0201 class I level on T2 cells [1] | RANK F-Score (HLA-A*0201)
FLPSDFFPSV [HBV peptide, peptide from Hepatitis B Virus used as positive control peptide in the T2 assay, reference compound] | stabilized as well as peptide 145 | 
SLLMWITQV [Peptide 513, reference compound] |  | 2
